Measurements reported in patent US7914793B2, “Method for producing an antigenic substance and antibody” (priority 1997, dated 2011).

System: Murine leukemic cells L-1210
Assay: cell viability of L-1210 by uptake of methylene blue after Yoshixol
Assay type: cell-based
Settings: 4 μl of 2M Yoshixol in ethanol
Procedure: This procedure was repeated twice. […] This filtered solution was injected intraperitoneally at a range of 0.2 cc/mice into CDF-1 strain of male mice (Charles-River Co, Saitama). Control group was treated with a same amount of cell free culture medium. On 31 days after the injection of the filtered solution, 0.3 cc of culture medium (1×10^6 cells/ml) was injected intraperitoneally in each group. Then, survival time of the experimental leukemia was investigated. […] In contrast, mice which were treated the filtered solution became to start death on 12 days after the transplantation. Longest survived period was prolonged to 14 days after the transplantation.
This procedure was repeated twice.

C=C1CC(C)(C)C=CC1=O [Yoshixol, 4,4-dimethyl-6-methylene-2-cyclohexen-1-one]
survival cell (cell viability, uptake of methylene blue) (after 20 hours): zero
survival cell (cell viability, uptake of methylene blue) (after 30 hours): zero
